Laboratory results published in PubChem BioAssay AID588458 (Sanford-Burnham Center for Chemical Genomics, 2011).
The list shows a part of the results, in another mix than the full data. Some tests of the compounds listed are not included; inactive here does not mean inactive elsewhere. Activity calls are given as the source filed them. No stated cut-off is given here; in the data, active means inhibition above about 50%; inactive means the rest.

Sequences of proteins named here, by UniProt entry; tags and fusion partners are left off. Residues count along the entry.
UniProt P26358, 504-1616 limits assumed: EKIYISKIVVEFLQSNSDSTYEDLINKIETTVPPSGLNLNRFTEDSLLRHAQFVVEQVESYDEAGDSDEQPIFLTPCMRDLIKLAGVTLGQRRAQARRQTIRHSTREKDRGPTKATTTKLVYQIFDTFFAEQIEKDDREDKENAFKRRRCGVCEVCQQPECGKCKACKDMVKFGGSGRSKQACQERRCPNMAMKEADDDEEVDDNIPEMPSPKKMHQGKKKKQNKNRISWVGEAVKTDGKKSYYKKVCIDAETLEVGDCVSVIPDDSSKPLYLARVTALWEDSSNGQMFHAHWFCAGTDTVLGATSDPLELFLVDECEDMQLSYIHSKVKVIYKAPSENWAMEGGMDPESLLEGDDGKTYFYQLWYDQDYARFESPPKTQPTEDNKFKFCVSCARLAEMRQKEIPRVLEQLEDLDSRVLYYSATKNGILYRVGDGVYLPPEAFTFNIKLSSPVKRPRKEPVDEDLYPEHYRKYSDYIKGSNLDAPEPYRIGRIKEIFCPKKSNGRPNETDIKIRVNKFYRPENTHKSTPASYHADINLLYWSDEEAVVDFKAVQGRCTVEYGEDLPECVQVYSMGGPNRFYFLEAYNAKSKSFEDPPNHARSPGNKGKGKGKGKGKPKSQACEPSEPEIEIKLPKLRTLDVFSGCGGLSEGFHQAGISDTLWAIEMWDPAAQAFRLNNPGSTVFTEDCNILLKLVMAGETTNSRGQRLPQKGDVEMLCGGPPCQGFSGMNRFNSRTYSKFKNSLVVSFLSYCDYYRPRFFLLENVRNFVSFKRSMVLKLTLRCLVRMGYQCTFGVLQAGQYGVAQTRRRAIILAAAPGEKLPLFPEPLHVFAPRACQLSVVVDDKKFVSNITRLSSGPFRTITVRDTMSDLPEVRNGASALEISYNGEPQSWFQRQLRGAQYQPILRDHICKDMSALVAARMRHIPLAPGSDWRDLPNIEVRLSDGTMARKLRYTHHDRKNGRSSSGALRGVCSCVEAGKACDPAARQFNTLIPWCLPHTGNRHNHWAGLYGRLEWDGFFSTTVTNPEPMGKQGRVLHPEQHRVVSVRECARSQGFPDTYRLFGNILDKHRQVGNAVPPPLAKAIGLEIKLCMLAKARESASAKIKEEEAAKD

Target: DNA (cytosine-5)-methyltransferase 1 (Homo sapiens) (UniProt P26358)
Experiment: inhibition of DNA methyltransferase DNMT1 – biochemical, molecular beacon, fluorescence, HinP1I cleavage, uHTS, primary screen (AID 588458)
Details: at 10 µM, hits give high values

Question: How did the inhibition (reported as % activation of signal) turn out when `COc1cc(SC)ccc1C(=O)NCC1(N(C)C)CCCCC1` was run?
Answer: inactive: 1.5%

Question: Which inhibition (reported as % activation of signal) does the source give for `CCN(CC)CC(C)C(C)OC(=O)C(O)(c1ccccc1)c1ccccc1` (stereo unspecified) here?
Answer: inactive: -0.84%

Question: How did the inhibition (reported as % activation of signal) turn out when `CC(C)N1C(=O)CC2(CCN(CCOC(=O)C(O)(c3ccccc3)c3ccccc3)CC2)C1=O` was run?
Answer: inactive: -1.68%

Question: Which inhibition (reported as % activation of signal) does the source give for `Cc1ccc(C(=O)NCC2(N3CCCCC3)CCCCC2)cc1` here?
Answer: inactive: -2.46%

Question: Which inhibition (reported as % activation of signal) does the source give for `O=C(NCC1(N2CCCCC2)CCCCC1)c1cc([N+](=O)[O-])ccc1Cl` here?
Answer: inactive: 9.01%

Question: For `CN1[C@@H]2CC[C@H]1CC(OC(=O)C(O)(c1ccccc1)c1ccccc1)C2` (stereo partly specified), which inhibition (reported as % activation of signal) is on record?
Answer: inactive: 0.94%

Question: For `O=C(NCC1(N2CCCCC2)CCCCC1)c1cc(F)c(F)cc1Cl`, which inhibition (reported as % activation of signal) is on record?
Answer: inactive: -0.58%

Question: For `C=CCN1CCN(CCOC(=O)C(O)(c2ccccc2)c2ccccc2)CC1`, which inhibition (reported as % activation of signal) is on record?
Answer: inactive: 0.87%

Question: How did the inhibition (reported as % activation of signal) turn out when `COc1ccc(C(=O)NCC2(N(C)C)CCCCC2)cc1` was run?
Answer: inactive: 0.25%

Question: For `O=C(NCC1(N2CCCCC2)CCCCC1)c1cccc(Br)c1`, which inhibition (reported as % activation of signal) is on record?
Answer: inactive: 1.02%

Question: For `Cc1cc(C(=O)NCC2(N3CCCCC3)CCCCC2)ccc1[N+](=O)[O-]`, which inhibition (reported as % activation of signal) is on record?
Answer: inactive: -1.04%

Question: With `CCN1CCCC(OC(=O)C2(O)c3ccccc3C=Cc3ccccc32)C1` (stereo unspecified) as the molecule, how does the inhibition (reported as % activation of signal) read?
Answer: inactive: 0.04%

Question: How did the inhibition (reported as % activation of signal) turn out when `CN(C)C1CCCC1OC(=O)C(O)(c1ccccc1)c1ccccc1` (stereo unspecified) was run?
Answer: inactive: 2.13%

Question: With `CN(C)c1ccc(C(=O)NCC2(N(C)C)CCCCC2)cc1` as the molecule, how does the inhibition (reported as % activation of signal) read?
Answer: inactive: 0.19%

Question: `Cc1ccccc1C(=O)NCC1(N2CCCCC2)CCCCC1` was tested. Which inhibition (reported as % activation of signal) did it give?
Answer: inactive: 2.61%

Question: With `COc1ccc(Cl)cc1C(=O)NCC1(N(C)C)CCCCC1` as the molecule, how does the inhibition (reported as % activation of signal) read?
Answer: inactive: -0.38%

Question: `COc1cccc(C(=O)NCC2(N3CCCCC3)CCCCC2)c1` was tested. Which inhibition (reported as % activation of signal) did it give?
Answer: inactive: 0.69%

Question: `O=C(NCC1(N2CCCCC2)CCCCC1)c1cccc(Cl)c1` was tested. Which inhibition (reported as % activation of signal) did it give?
Answer: inactive: 4.97%

Question: `CN(C)C1(CNC(=O)c2ccc(Br)cc2)CCCCC1` was tested. Which inhibition (reported as % activation of signal) did it give?
Answer: inactive: -1.66%

Question: `COc1cc(C(=O)NCC2(N(C)C)CCCCC2)c([N+](=O)[O-])cc1OC` was tested. Which inhibition (reported as % activation of signal) did it give?
Answer: inactive: -0.03%

Question: For `C=C(C)C#CC(O)(C(=O)OC1CCN(C)CC1)c1ccccc1` (stereo unspecified), which inhibition (reported as % activation of signal) is on record?
Answer: inactive: 1.69%

Question: Which inhibition (reported as % activation of signal) does the source give for `COc1ccc(Br)c(C(=O)NCC2(N3CCCCC3)CCCCC2)c1` here?
Answer: inactive: -2.99%

Question: How did the inhibition (reported as % activation of signal) turn out when `O=C(OCCN1CCCC1)C(O)(c1ccccc1)c1ccccc1` was run?
Answer: inactive: 2.4%

Question: With `CC(C)Oc1ccc(C(=O)NCC2(N(C)C)CCCCC2)cc1` as the molecule, how does the inhibition (reported as % activation of signal) read?
Answer: inactive: 2.15%

Question: `CN(C)c1cccc(C(=O)NCC2(N(C)C)CCCCC2)c1` was tested. Which inhibition (reported as % activation of signal) did it give?
Answer: inactive: -0.59%

Question: Which inhibition (reported as % activation of signal) does the source give for `O=C(OC1CN2CCC1CC2)C(CO)(c1ccccc1)c1ccccc1` (stereo unspecified) here?
Answer: inactive: 0.19%
